Experimental data: patent US20100069254A1, “Cell Culture Model for Demyelination/Remyelination” (priority 2008, published 2010)
Entries after “also recorded” stand apart in the source; their conditions may differ.

Test system: myelinated axons in neuronal cell cultures differentiated from ES-D3 cells
Assay: Demyelination of myelinated neuronal cell cultures, assessed by transmission electron microscopy
Assay type: cell-based, mouse
Conditions: 10 μg/ml, 10 minute exposure
From the text: Monitoring of metabolic activity (CellTiter 96® AQueous One; Promega) is used to identify concentrations that caused a minimum amount of damage to the oligodendrocytes and neurons. In this assay a tetrazolium compound (MTS) and an electron coupling reagent (phenazine ethosulfate) are used for calorimetric detection of metabolic activity. MTS is bioreduced, presumably by NADPH or NADH, into a colored formazan product that is soluble in tissue culture medium and can be detected spectrophotometrically. Absorbance at about […] is proportional to metabolic activity and is commonly used to monitor the number of living cells in culture.

Oc1c(Cl)cc(Cl)c(Cl)c1Cc1c(O)c(Cl)cc(Cl)c1Cl [hexachlorophene]
demyelination (transmission electron microscopy): significant demyelination; also recorded: sufficient for demyelination
